This passage reports Ki results from ChEMBL document CHEMBL1132392, “Novel derivatives of 3-(dipropylamino)chroman. Interactions with 5-HT1A and D2A receptors” (Bioorg Med Chem Lett, 1999).

Chains of the proteins cited; added tags and fusions are not shown.
UniProt P14416, whole entry: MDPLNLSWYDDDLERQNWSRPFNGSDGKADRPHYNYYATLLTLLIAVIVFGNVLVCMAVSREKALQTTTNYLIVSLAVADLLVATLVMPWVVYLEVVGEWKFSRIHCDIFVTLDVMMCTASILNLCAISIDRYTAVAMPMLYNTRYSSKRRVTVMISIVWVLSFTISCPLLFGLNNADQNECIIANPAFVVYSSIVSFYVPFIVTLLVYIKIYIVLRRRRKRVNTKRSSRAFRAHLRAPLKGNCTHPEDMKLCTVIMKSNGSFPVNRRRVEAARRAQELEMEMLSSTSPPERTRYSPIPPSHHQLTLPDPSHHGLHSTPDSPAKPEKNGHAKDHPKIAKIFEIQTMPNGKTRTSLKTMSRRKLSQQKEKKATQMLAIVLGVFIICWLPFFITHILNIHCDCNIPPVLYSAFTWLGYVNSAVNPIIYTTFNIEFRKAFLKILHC

The experiment deals with D(2) dopamine receptor (Homo sapiens, UniProt P14416). Briefly: In vitro ability to inhibit [3H]raclopride binding to cloned human D2A receptors expressed in mouse fibroblast (LtK-) cells. Type of experiment: cell-based.

SMILES strings stand for the structures.

Regarding `CCCN(CCC)C1COc2c(cccc2-c2ccccc2)C1` (configuration not stated), the Ki (commonly a dissociation constant, usually derived from enzyme kinetics or from competition with a known ligand) is 590 nM. Turning to `CCCN(CCC)C1COc2c(cccc2-c2ccc(OC)cc2)C1` (configuration not stated), affinity was put at a Ki of 1090 nM.
